Data: ChEMBL document CHEMBL5150005, “Discovery of 5-{4-[(7-Ethyl-6-oxo-5,6-dihydro-1,5-naphthyridin-3-yl)methyl]piperazin-1-yl}-N-methylpyridine-2-carboxamide (AZD5305): A PARP1-DNA Trapper with High Selectivity for PARP1 over PARP2 and Other PARPs” (J Med Chem, 2021)

By UniProt entry, the sequences of proteins in these tests, tags left out.
UniProt Q460N5, whole entry: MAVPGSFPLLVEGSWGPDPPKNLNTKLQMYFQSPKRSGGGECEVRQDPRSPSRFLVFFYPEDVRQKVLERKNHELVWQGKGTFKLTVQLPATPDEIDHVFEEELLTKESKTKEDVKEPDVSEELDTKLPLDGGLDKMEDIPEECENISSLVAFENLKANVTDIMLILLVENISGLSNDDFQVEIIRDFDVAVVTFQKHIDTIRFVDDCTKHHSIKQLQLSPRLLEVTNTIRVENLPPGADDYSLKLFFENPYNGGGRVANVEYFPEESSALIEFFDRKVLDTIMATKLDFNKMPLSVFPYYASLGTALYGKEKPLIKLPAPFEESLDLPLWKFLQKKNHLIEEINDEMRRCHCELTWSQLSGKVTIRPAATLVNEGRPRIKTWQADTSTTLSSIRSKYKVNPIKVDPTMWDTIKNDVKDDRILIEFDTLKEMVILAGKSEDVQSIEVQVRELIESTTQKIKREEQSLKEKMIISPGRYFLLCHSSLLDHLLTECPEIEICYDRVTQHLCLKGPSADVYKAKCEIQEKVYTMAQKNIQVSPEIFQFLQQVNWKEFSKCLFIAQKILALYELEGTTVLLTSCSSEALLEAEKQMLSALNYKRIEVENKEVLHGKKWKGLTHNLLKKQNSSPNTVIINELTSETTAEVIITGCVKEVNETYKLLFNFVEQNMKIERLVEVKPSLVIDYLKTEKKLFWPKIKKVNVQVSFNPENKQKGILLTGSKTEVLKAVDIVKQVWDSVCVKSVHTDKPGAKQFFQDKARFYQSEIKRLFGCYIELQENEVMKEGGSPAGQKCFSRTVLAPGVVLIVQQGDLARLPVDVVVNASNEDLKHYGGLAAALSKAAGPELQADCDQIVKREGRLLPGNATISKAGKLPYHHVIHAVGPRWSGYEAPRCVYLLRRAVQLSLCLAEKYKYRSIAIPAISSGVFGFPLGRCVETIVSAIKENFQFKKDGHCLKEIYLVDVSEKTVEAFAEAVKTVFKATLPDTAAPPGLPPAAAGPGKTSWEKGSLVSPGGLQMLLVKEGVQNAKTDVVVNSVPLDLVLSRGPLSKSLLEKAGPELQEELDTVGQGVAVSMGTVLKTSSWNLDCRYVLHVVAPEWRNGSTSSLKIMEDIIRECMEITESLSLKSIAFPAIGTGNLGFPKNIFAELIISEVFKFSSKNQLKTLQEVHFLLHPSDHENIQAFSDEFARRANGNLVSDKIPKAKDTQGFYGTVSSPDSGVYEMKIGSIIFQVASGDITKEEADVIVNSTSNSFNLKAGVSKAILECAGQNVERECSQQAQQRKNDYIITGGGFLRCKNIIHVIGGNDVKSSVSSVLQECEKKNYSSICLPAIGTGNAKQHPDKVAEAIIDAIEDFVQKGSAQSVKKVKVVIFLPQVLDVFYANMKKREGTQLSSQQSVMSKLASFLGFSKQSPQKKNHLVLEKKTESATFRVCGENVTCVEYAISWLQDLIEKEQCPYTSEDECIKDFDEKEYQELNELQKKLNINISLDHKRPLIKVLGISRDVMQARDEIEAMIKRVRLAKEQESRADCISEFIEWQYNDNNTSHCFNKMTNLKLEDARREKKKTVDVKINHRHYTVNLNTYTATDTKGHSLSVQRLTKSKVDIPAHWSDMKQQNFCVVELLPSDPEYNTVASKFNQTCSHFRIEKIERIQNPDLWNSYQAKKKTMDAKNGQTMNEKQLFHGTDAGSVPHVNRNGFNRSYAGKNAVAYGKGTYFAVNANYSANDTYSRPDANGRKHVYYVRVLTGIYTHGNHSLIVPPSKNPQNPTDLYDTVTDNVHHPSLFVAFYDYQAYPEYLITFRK

How the values were obtained:
[1] = biological target: T1, Protein mono-ADP-ribosyltransferase PARP12 (Homo sapiens, UniProt Q9H0J9)
T1 sequence (Q9H0J9 whole entry): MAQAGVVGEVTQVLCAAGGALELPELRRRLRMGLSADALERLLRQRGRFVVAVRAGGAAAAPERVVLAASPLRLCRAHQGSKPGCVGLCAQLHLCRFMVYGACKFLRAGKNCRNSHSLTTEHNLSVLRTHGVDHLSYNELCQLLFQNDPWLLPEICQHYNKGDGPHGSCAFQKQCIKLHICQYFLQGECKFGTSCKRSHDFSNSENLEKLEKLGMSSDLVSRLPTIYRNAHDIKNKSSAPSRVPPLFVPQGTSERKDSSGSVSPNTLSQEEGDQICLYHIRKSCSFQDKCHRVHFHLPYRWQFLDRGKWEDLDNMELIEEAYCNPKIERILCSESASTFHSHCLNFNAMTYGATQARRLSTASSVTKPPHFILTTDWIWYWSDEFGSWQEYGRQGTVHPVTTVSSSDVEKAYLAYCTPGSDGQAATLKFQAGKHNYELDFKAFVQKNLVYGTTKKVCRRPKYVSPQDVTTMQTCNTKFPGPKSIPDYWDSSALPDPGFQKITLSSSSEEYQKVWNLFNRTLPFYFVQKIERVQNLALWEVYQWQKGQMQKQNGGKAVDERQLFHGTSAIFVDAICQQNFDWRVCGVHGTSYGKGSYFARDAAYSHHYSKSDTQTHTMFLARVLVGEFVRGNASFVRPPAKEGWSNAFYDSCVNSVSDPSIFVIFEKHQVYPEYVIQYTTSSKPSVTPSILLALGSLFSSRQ

[2] = biological target: T2, Poly [ADP-ribose] polymerase tankyrase-2 (Homo sapiens, UniProt Q9H2K2)
T2 sequence (Q9H2K2 whole entry): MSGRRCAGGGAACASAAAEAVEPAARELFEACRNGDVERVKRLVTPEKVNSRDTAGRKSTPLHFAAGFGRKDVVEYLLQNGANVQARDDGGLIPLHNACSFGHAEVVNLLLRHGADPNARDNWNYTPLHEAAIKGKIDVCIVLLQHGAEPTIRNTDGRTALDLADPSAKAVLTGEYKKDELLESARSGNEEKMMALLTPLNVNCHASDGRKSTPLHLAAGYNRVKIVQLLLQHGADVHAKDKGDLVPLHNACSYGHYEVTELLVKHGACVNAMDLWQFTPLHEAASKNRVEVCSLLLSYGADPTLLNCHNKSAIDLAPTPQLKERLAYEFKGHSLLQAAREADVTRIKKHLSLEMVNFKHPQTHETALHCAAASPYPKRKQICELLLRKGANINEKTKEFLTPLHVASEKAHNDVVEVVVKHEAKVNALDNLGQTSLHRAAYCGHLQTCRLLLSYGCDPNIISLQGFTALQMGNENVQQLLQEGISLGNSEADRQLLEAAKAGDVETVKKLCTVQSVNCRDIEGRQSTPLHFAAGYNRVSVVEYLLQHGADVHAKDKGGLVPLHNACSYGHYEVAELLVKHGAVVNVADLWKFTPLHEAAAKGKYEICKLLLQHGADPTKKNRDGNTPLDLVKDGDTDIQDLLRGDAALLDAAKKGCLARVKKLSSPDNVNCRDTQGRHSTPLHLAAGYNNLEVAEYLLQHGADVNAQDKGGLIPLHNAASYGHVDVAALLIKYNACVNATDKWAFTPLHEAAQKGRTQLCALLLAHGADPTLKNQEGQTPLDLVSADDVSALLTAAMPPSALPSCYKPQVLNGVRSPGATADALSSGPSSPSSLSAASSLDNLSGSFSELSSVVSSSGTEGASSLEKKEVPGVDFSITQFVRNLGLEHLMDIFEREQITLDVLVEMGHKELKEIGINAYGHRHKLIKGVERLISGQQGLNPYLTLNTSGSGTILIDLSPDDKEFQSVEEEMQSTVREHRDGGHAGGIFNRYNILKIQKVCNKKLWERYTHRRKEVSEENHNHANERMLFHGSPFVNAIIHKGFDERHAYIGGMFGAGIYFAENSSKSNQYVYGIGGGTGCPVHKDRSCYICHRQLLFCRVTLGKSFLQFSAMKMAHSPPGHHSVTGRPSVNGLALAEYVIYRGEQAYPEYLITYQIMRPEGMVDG

[3] = biological target: Protein mono-ADP-ribosyltransferase PARP14 (Homo sapiens, UniProt Q460N5)
[4] = biological target: T3, Protein mono-ADP-ribosyltransferase PARP10 (Homo sapiens, UniProt Q53GL7); assay: Binding affinity to PARP10 (unknown origin) assessed as apparent dissociation constant; details: read-out: Kd(app)
T3 sequence (Q53GL7 whole entry): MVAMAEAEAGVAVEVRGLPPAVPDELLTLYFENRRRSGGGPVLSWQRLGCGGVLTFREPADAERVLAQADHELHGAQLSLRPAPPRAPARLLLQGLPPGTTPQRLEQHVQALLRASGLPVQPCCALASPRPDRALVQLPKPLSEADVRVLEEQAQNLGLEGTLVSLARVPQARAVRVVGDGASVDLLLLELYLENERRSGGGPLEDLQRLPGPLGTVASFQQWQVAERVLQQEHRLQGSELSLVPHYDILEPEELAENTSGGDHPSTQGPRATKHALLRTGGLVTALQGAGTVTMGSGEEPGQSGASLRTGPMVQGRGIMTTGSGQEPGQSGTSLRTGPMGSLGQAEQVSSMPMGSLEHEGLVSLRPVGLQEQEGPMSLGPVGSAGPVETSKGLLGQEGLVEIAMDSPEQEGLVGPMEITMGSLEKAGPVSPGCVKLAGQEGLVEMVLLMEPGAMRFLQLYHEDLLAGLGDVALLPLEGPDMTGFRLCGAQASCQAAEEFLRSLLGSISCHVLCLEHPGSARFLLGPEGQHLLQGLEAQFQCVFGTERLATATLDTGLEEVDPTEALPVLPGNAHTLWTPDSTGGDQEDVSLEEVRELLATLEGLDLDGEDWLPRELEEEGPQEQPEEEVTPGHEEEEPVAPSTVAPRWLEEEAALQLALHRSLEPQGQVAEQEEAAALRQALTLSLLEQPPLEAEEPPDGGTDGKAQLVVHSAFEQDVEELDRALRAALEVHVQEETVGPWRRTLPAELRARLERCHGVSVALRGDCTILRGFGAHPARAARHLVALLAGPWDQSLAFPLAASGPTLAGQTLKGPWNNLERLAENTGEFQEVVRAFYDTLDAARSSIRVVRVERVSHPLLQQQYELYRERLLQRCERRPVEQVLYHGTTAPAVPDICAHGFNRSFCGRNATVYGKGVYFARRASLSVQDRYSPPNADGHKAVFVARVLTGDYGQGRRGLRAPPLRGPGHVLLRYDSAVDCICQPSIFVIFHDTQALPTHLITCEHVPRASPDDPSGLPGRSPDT

[5] = biological target: T4, Protein mono-ADP-ribosyltransferase PARP16 (Homo sapiens, UniProt Q8N5Y8); assay: Binding affinity to PARP16 (unknown origin) assessed as apparent dissociation constant; details: read-out: Kd(app)
T4 sequence (Q8N5Y8 whole entry): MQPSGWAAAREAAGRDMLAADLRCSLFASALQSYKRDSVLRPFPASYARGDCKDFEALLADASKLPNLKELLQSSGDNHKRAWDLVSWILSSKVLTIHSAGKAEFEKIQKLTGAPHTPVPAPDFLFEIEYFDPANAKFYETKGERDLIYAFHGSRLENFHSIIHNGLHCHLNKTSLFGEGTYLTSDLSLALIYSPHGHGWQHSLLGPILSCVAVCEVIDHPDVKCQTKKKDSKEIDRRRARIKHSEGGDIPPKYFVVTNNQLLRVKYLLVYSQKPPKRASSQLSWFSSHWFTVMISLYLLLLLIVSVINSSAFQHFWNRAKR

| Structure (SMILES) | Kd [1] [µM] | Kd [2] [µM] | Kd [3] [µM] | Kd [4] [µM] | Kd [5] [µM] |
| --- | --- | --- | --- | --- | --- |
| CNCc1ccc(-c2[nH]c3cc(F)cc4c3c2CCNC4=O)cc1 [RUCAPARIB] | > 10 | – | – | – | – |
| NC(=O)c1cccc2cn(-c3ccc([C@@H]4CCCNC4)cc3)nc12 [NIRAPARIB] | > 10 | > 10 | > 10 | – | – |
| Cn1ncnc1[C@H]1c2n[nH]c(=O)c3cc(F)cc(c23)N[C@@H]1c1ccc(F)cc1 [TALAZOPARIB] | – | – | > 10 | – | – |
| C[C@]1(c2nc3c(C(N)=O)cccc3[nH]2)CCCN1 [VELIPARIB] | – | – | – | 6.8 | > 10 |
